Reference: US20250011311A1, “AMIDO HETEROAROMATIC COMPOUNDS” (AstraZeneca AB, priority 2022, published 2025)

Amino acid sequences for entries named in this document (tags omitted). Residues count along the entry.
UniProt P51659, 1-311: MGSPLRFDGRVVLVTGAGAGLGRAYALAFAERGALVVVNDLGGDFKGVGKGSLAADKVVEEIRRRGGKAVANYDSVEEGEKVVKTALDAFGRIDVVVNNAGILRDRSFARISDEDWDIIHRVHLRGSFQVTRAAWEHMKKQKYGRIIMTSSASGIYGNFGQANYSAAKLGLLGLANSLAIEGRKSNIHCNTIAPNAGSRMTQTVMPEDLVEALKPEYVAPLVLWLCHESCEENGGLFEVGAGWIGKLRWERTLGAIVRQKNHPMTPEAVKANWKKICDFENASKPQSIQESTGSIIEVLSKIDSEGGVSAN

Target: recombinant 17bHSD4 (M1-N311) (Homo sapiens (Human), UniProt P51659)
Test: In Vitro 17bHSD4 Enzyme Assay
Type: biochemical
Conditions: 40 nM 17bHSD4, 0.125 mM NAD, 15 μM Estradiol, 1.5 h; NADH fluorescence; read-out: 17HSD17b4 Enzyme assay IC50
Method: In Vitro 17bHSD4 Enzyme Assay
10 concentration of compounds (0.2 μl) in DMSO was added to GREINER FLUOTRAC 200 384 well plate (781076) using ECHO dispensing (BECKMAN COULTER). 80 nl of 10 mM Estradiol (SIGMA, E8875) was added using Echo dispensing. The enzyme reaction was initiated by addition, using MULTIDROP COMBI dispensing (THERMO FISHER), of 40 μl of a mix containing recombinant 17bHSD4 (M1-N311) and NAD. Final assay conditions were 40 nM of 17bHSD4, 0.125 mM of NAD, 15 μM Estradiol and various concentrations of compound in buffer (5 mM EDTA (TEKNOVA E0306), 0.01% DDM (AFFYMETRIX D310) in 50 mM Tris-Cl, pH 7.4). After each addition plates were centrifuged for 1 min at 150×g (EPPENDORF, 5810R, A-4-81). NADH formation was measured by fluorescence intensity (FI) (Ex360/Em460) at time zero (to) and at 1.5 h (t1) in a PHERASTAR FSX (BMG LABTECH). FI for each sample was calculated as FI at t1 minus FI at t0.
[…] […] was used for curve fitting and calculation of IC50 values.
Compound effect was calculated with the formula below;
where X represents the effect in the presence of test compound, min is DMSO and max is the maximum inhibition of enzyme using a known inhibitor as control.

Compound: O=C(c1noc(-c2cc(F)c(F)c(O)c2F)n1)N1CC2CC2(c2ccccc2)C1 (stereo not shown) [Example 77, (1-Phenyl-3-azabicyclo[3.1.0]hexan-3-yl)(5-(2,4,5-trifluoro-3-hydroxyphenyl)-1,2,4-oxadiazol-3-yl)methanone]
- IC50: 7 µM
